In PubChem BioAssay AID453 (PCMD, 2006):
The list shows a part of the results, in another mix than the full data. Calls of active or inactive are those of the source. Cut-off read from the data, not from the text of the source: active = inhibition above about 21%; inactive = the rest.

Biological target: Cathepsin B (Homo sapiens) (UniProt P07858)
Experiment: human cathepsin B inhibitors, primary screen, biochemical, fluorogenic substrate (AID 453);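 note: 0% = enzyme with no compound and 100% = no enzyme blank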
Settings: purified cathepsin B, fluorescence, active compounds read high,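 tested at 10 µM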

Row | SMILES | inhibition
1 | Cc1nn(-c2ccccc2)c2c1P(=O)(N1CCOCC1)N(C)C(c1ccccc1)=N2 (centres undefined) | inactive: 3.76%
2 | O=P1(Nc2ncccn2)COc2ccccc2OC1 | inactive: 8.44%
3 | Cc1ccc(OCC(=O)OC2CN3CCC2CC3)cc1 (centres undefined) | inactive: 5.14%
4 | O=P1(Nc2ccc(Br)cn2)COc2ccccc2OC1 | inactive: 2.7%
5 | O=P1(Nc2ccccn2)COc2ccccc2OC1 | inactive: 4.81%
6 | Clc1n[nH]nc1-c1nn[nH][15n]1 | inactive: 2.33%
7 | Cc1cccc(OCC(=O)OC2CN3CCC2CC3)c1 (centres undefined) | inactive: -0.32%
8 | CCOP1(=S)c2c(C)nn(CCC#N)c2N=C(c2ccccc2F)N1C (centres undefined) | inactive: 7.36%
9 | O=P(Nc1nccs1)(c1ccccc1)c1nc2ccccc2s1 (centres undefined) | inactive: -3.8%
10 | CCOP1(=S)c2c(C)nn(CCC#N)c2N=C(c2ccc(F)cc2)N1C (centres undefined) | inactive: -3.73%
11 | O=C(OC1CN2CCC1CC2)C12CC3CC(CC(C3)C1)C2 (centres undefined) | inactive: -1.76%
12 | COP1(=S)c2c(C)nn(CCC#N)c2N=C(c2ccc(F)cc2)N1C (centres undefined) | inactive: -0.23%
13 | O=C(COc1ccccc1)OC1CN2CCC1CC2 (centres undefined) | inactive: 3.06%
14 | CCc1nc2c(n1)c1c(non1O)c1c2no[n+]1[O-] | inactive: 3.76%
15 | COC(=O)c1cc2c(s1)N=C(c1ccccc1)N(C)P2(=O)N1CCOCC1 (centres undefined) | inactive: 5.24%
16 | O=P1(Nc2nc3ccc(Cl)cc3s2)COc2ccccc2O1 (centres undefined) | inactive: 1.24%
17 | O=P(Nc1nccs1)(c1ccccc1)c1ccccc1 | inactive: 2.95%
18 | c1nnnn1CCn1cnnn1 | inactive: -3.5%
19 | O=C(OC1CN2CCC1CC2)c1cccc(Cl)c1 (centres undefined) | inactive: 2.56%
